# Values quoted from earlier work, collected in US8299238B2, “Steroidogenesis modified cells and methods for screening for endocrine disrupting chemicals” (University of Saskatchewan, priority 2009, dated 2012).
# Test system: H295R cells
# Conditions: H295R cells (parental or unmodified); cited from earlier work
substance,measurement,value
Human chorionic gonadotropin [Human chorionic gonadotropin (hcG)],Effect type: estradiol (E2) production,No effect on T and E2 production in
same,Effect type: testosterone (T) production,No effect on T and E2 production in
